Biological target: human inducible phospho-fructokinase bisphosphatase isoform 3, PFKFB3 (human), Q16875
Assay: MST; compound in MST buffer mixed 1:1 with 100 nM RED-NHS labeled recombinant PFKFB3, incubated 20 min at room temperature; Nanotemper

B1: compound 6 (peptide)
chain: WGY
modifications: not checked
**Q.** How did the Kd turn out when B1 was run?
**A.** The Kd was 3000 nM.
